Usually IC50 stands for the concentration that gives 50% inhibition.

Sequences of proteins named here, by UniProt entry; tags and fusion partners are left off. Residues count along the entry.
UniProt P56817, 46-501: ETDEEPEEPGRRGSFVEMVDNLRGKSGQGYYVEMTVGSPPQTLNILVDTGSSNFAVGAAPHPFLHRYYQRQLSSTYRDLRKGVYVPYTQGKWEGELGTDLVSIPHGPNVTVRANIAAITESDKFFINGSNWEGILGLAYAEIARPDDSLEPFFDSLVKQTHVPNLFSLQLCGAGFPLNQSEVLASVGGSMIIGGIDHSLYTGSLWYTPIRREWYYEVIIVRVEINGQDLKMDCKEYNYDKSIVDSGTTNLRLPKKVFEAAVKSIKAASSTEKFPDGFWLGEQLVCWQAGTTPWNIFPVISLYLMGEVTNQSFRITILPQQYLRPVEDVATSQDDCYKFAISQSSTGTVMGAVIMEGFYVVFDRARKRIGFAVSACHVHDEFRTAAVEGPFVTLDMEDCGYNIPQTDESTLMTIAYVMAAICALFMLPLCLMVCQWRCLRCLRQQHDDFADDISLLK
UniProt P07339, 65-412, species assumed: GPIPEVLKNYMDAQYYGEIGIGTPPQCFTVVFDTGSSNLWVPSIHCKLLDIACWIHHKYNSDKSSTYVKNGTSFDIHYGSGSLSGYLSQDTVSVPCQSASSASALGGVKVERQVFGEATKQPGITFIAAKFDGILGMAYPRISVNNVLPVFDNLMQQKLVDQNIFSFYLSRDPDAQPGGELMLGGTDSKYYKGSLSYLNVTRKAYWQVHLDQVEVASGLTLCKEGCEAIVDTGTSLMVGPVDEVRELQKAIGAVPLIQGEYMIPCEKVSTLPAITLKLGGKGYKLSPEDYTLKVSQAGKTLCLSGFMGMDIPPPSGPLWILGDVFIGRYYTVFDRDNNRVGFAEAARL

IC50 data for three compounds are collected here from patent publication US9085576B2 (AMGEN INC., priority 2013, dated 2015).

In assay [1] the target is Beta Secretase enzyme (BACE) (Homo sapiens (Human), UniProt P56817). The experiment in a line: In vitro enzymatic BACE FRET assay. It is filed as biochemical. The note with it: read-out: BACE1 Enzyme assay IC50.
For the next assay, the target named is Cathepsin D (Cat D) (Homo sapiens (Human), UniProt P07339). The experiment in a line: In vitro enzymatic Cathepsin D (Cat D) FRET assay. It is filed as biochemical. The note with it: read-out: CatD IC50.

As for `NC1=NC(c2nc(NC(=O)c3ccc(Cl)cn3)ccc2F)(C(F)F)[C@H]2C[C@H]2O1` (mixture of isomers) [Example 321, rac N-(6-((1R,5S,6R)-3-amino-5-(difluoromethyl)-2-oxa-4-azabicyclo[4.1.0]hept-3-en-5-yl)-5-fluoropyridin-2-yl)-5-chloropicolinamide], in assay [1], the IC50 was 0.339 µM.

As to `Cc1cc(C(F)F)cnc1C(=O)Nc1ccc(F)c([C@@]2(CF)N=C(N)O[C@@H]3C[C@@H]32)c1` [Example 201, N-(3-((1R,5S,6R)-3-amino-5-(fluoromethyl)-2-oxa-4-azabicyclo[4.1.0]hept-3-en-5-yl)-4-fluorophenyl)-5-(difluoromethyl)-3-methylpicolinamide], the IC50 at Cathepsin D (Cat D) amounted to 515 µM.

Consider `N=C1N[C@](CF)(c2cc(-c3cncc(F)c3)c(CO)cc2F)[C@H]2CC2O1` (stereo partly drawn) [Example 433, (5-fluoro-4-([(1R,S),(5S,R),(6R,S)]-5-(fluoromethyl)-3-imino-2-oxa-4-azabicyclo[4.1.0]heptan-5-yl)-2-(5-fluoropyridin-3-yl)phenyl)methanol], for which the IC50 on Cathepsin D (Cat D) amounted to 613 µM.
